Assay results taken from article PMC3759666, “Post-translational modification and conformational state of Heat Shock Protein 90 differentially affect binding of chemically diverse small molecule inhibitors” (Oncotarget, 2013).

Sequences of proteins named here, by UniProt entry; tags and fusion partners are left off. Residues count along the entry.
UniProt P08238, 2-724: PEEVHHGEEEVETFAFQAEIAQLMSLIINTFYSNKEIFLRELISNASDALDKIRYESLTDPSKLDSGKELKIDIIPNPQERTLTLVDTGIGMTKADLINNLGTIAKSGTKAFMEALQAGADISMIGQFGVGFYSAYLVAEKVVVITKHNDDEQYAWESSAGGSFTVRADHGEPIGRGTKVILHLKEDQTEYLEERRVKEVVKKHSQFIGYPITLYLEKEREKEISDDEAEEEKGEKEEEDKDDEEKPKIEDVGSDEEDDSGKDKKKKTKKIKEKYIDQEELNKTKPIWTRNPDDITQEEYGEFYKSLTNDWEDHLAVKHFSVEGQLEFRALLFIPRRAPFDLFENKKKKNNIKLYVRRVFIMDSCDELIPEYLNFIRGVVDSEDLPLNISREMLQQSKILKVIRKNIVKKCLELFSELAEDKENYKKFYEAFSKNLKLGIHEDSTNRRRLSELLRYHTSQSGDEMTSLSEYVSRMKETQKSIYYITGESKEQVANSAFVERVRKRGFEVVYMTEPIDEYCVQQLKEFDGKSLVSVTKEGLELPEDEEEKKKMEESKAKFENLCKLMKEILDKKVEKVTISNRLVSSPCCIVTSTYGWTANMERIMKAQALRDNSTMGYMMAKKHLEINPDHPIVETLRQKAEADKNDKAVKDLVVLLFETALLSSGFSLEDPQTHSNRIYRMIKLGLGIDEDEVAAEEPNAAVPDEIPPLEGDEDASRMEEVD

Target: T1, Hsp90β (Homo sapiens, UniProt P08238)
T1 construct: gene HSP90AB1

SMILES: CC(C)NCCCn1c(Sc2cc3c(cc2I)OCO3)nc2c(N)ncnc21 [PU, PU-H71]
- PU-agarose capture of Flag-Hsp90β from 293-H cell lysate: binding of PU-beads to both Hsp90α and Hsp90β was minimally affected by these mutations
